Where “and” joins values, the source holds several entries; their conditions need not be identical. Equal entries are not always repeated. This is a selection; strong and weak results do not stand in their true shares.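 96-well plates, one dose, 48 hours. Percent growth reported; active if below 10.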 Some structures show a salt or complex split into parts, the way the source records it. Calls of active or inactive are those of the source.

One test deals with A549/ATCC NSCLC. Description: NCI-60 one-dose screen, 48 h (100 = growth as untreated, 0 = no growth, -100 = all killed). The note with it: 10 µM.
As to `CP(=O)(OCCCl)N(CCCl)CCCl` (stereo unspecified), the growth is inactive: 102%.

On to `CN(CCO)CCCl.O=[N+]([O-])c1cc([N+](=O)[O-])c(O)c([N+](=O)[O-])c1`, for which the growth was inactive: 92.1%.

As for `CCN(CC)CCOC(=O)C(O)(c1ccccc1)c1cc(C)c(C)c(C)c1C` (stereo unspecified), the growth is inactive: 88%.

For the compound `CCN(CC)CCOC(=O)C(O)(c1ccccc1)c1cc(C)cc(C)c1C` (stereo unspecified), the growth is inactive: 90.8%.

Regarding `CCN(C)CC.O=[N+]([O-])c1cc([N+](=O)[O-])c(O)c([N+](=O)[O-])c1`, the growth is inactive: 110%.

As for `O=C(Cl)c1c([N+](=O)[O-])cc([N+](=O)[O-])cc1[N+](=O)[O-]`, the growth is inactive: 93.9%.

For the compound `COc1ccc(C(O)(C(=O)OCCN2CCCCC2)c2ccc(OC)cc2)cc1`, the growth was inactive: 95.4%.

In the case of `Cc1c([N+](=O)[O-])c(C)c([N+](=O)[O-])c(C)c1[N+](=O)[O-]`, the growth is inactive: 110%.

`O=C(OCCN1CCCCCCCC1)C(O)(c1ccccc1)c1ccccc1`: the growth is inactive: 103%.

`CN/C(N)=N/[N+](=O)[O-]`: the growth is inactive: 106%.

As for `CCOC(=O)Nc1c([N+](=O)[O-])cc([N+](=O)[O-])cc1[N+](=O)[O-]`, the growth was inactive: 93.7%.

`O=[N+]([O-])c1cc([N+](=O)[O-])c(Nc2nnnn2CCO)c([N+](=O)[O-])c1`: the growth is inactive: 106%.

On to `Cc1c([N+](=O)[O-])cc([N+](=O)[O-])c(Br)c1[N+](=O)[O-]`, for which the growth is inactive: 97.1%.

With `CN1CCN(CCOC(=O)C(O)(c2ccccc2)c2ccccc2)CC1`, the growth was inactive: 99.9%.

For `O=[N+]([O-])c1cc([N+](=O)[O-])c(O)c([N+](=O)[O-])c1.c1ccc([I+]c2ccccc2)cc1`, the growth was inactive: 55.4%.

As for `Nc1cc([N+](=O)[O-])cc([N+](=O)[O-])c1O`, the growth was inactive: 105% and inactive: 81.2%.

Regarding `CC(C)N1CCN(CCOC(=O)C(O)(c2ccccc2)c2ccccc2)CC1`, the growth was inactive: 77.2%.

Take `CC(C)N(CCCl)C(C)C`: the growth is inactive: 93%.

`O=[N+]([O-])OCCOc1ccc([N+](=O)[O-])cc1[N+](=O)[O-]`: the growth is inactive: 99.7%.

As for `O=[N+]([O-])N(CCOC(N(F)F)(N(F)F)N(F)F)CC([N+](=O)[O-])([N+](=O)[O-])[N+](=O)[O-]`, the growth is inactive: 100%.

Regarding `NN/C(N)=N/[N+](=O)[O-]`, the growth is inactive: 98.2%.

In a further test the test system is 786-0 renal. The description is as above. The note with it: 10 µM.
`CCCOP(=S)(Cl)OCCC`: the growth is inactive: 101%.

As to `CN(C)CCS`, the growth is inactive: 95.2% and inactive: 100%.

For the compound `O=C(O)C1(O)c2ccccc2-c2ccccc21`, the growth was inactive: 98.2% and inactive: 99%.

Take `Nc1cccc(Cl)c1.O=[N+]([O-])c1cc([N+](=O)[O-])c(O)c([N+](=O)[O-])c1`: the growth is inactive: 97.5%.

On to `OCCSCCO`, for which the growth is inactive: 94.7%.

Regarding `Nc1cc([As](Cl)Cl)cc(N)c1O`, the growth is inactive: 72.2%.

For the compound `O=[N+]([O-])N(CCN(CC(Br)([N+](=O)[O-])[N+](=O)[O-])[N+](=O)[O-])CC(Br)([N+](=O)[O-])[N+](=O)[O-]`, the growth is inactive: 97.7%.

On to `O=C1N([N+](=O)[O-])CCN1[N+](=O)[O-]`, for which the growth is inactive: 103%.

In the case of `CC[N+]([O-])(CC)Cc1ccccc1.O=[N+]([O-])c1cc([N+](=O)[O-])c(S(=O)(=O)O)c([N+](=O)[O-])c1`, the growth was inactive: 106%.

For `CP(=O)(OCCCl)N(CCCl)CCCl` (stereo unspecified), the growth is inactive: 100%.

Consider `CN(CCO)CCCl.O=[N+]([O-])c1cc([N+](=O)[O-])c(O)c([N+](=O)[O-])c1`, for which the growth was inactive: 101%.

On to `CCN(CC)CCOC(=O)C(O)(c1ccccc1)c1cc(C)c(C)c(C)c1C` (stereo unspecified), for which the growth is inactive: 90.7%.

As for `CCN(CC)CCOC(=O)C(O)(c1ccccc1)c1cc(C)cc(C)c1C` (stereo unspecified), the growth is inactive: 92.8%.

`CCN(C)CC.O=[N+]([O-])c1cc([N+](=O)[O-])c(O)c([N+](=O)[O-])c1`: the growth was inactive: 96.5%.

As to `O=C(Cl)c1c([N+](=O)[O-])cc([N+](=O)[O-])cc1[N+](=O)[O-]`, the growth is inactive: 75.1%.

`COc1ccc(C(O)(C(=O)OCCN2CCCCC2)c2ccc(OC)cc2)cc1`: the growth is inactive: 101%.

As to `Cc1c([N+](=O)[O-])c(C)c([N+](=O)[O-])c(C)c1[N+](=O)[O-]`, the growth was inactive: 112%.

As for `O=C(OCCN1CCCCCCCC1)C(O)(c1ccccc1)c1ccccc1`, the growth was inactive: 96.7%.

Take `CN/C(N)=N/[N+](=O)[O-]`: the growth is inactive: 102%.

In the case of `CCOC(=O)Nc1c([N+](=O)[O-])cc([N+](=O)[O-])cc1[N+](=O)[O-]`, the growth is inactive: 117%.

`O=[N+]([O-])c1cc([N+](=O)[O-])c(Nc2nnnn2CCO)c([N+](=O)[O-])c1`: the growth is inactive: 105%.

In the case of `Cc1c([N+](=O)[O-])cc([N+](=O)[O-])c(Br)c1[N+](=O)[O-]`, the growth was inactive: 104%.

Regarding `CN1CCN(CCOC(=O)C(O)(c2ccccc2)c2ccccc2)CC1`, the growth is inactive: 97.4%.

Regarding `O=[N+]([O-])c1cc([N+](=O)[O-])c(O)c([N+](=O)[O-])c1.c1ccc([I+]c2ccccc2)cc1`, the growth was inactive: 51.9%.

For the compound `Nc1cc([N+](=O)[O-])cc([N+](=O)[O-])c1O`, the growth was inactive: 111% and inactive: 96.2%.

As for `CC(C)N1CCN(CCOC(=O)C(O)(c2ccccc2)c2ccccc2)CC1`, the growth was inactive: 97.1%.

Turning to `CC(C)N(CCCl)C(C)C`, the growth was inactive: 108%.

As for `O=[N+]([O-])OCCOc1ccc([N+](=O)[O-])cc1[N+](=O)[O-]`, the growth is inactive: 110%.

In the case of `O=[N+]([O-])N(CCOC(N(F)F)(N(F)F)N(F)F)CC([N+](=O)[O-])([N+](=O)[O-])[N+](=O)[O-]`, the growth was inactive: 103%.

Take `NN/C(N)=N/[N+](=O)[O-]`: the growth was inactive: 100%.

Source of the values: PubChem BioAssay (NCI).
